Measurements published in patent US20210317204A1 (ALMAC DISCOVERY, published 2021).

How the values were obtained:
[1] = target: T1, human EGFR on the surface of human cancer cell lines (human); assay: flow cytometry on four cell lines at 66 nM, PE-anti-human; signal not split between ROR1 and EGFR
T1 construct: whole, on cells; also called cell surface EGFR

[2] = target: T2, human ROR1 on the surface of human cancer cell lines (human, UniProt Q01973); assay: as above
T2 construct: whole, on cells; the cell line is named under assay; also called cell surface ROR1

B1: P3A1hFc7C12 bispecific molecule (bispecific antibody)
chain: TRVDQTPRTATKETGESLTINCVLTDTSYGLYSTSWFRKNPGTTDWERMSIGGRYVESVNKGAKSFSLRIKDLTVADSATYYCKAREARHPWLRQWYDGAGTVLTVNGGGGSGGGGSGGGGS[human IgG1 Fc with changes cut from this listing]GGGGSGGGGSGGGGSGGGGSGGGGSAVQLVESGGGSVQAGGSLRLT[about 100 residues cut from this listing]WGQGTQVTVSSG
notes: also called P3A1 hFc (S252C) 7C12
B1: binds [1]; binds [2].
